{"sequences": {"note": "Protein sequences, listed by entry. Tags and fused reporters are not part of them. Lines headed by an entry give the natural chain unless they say otherwise; changes in a name come on top.", "UniProt P04757, whole entry": "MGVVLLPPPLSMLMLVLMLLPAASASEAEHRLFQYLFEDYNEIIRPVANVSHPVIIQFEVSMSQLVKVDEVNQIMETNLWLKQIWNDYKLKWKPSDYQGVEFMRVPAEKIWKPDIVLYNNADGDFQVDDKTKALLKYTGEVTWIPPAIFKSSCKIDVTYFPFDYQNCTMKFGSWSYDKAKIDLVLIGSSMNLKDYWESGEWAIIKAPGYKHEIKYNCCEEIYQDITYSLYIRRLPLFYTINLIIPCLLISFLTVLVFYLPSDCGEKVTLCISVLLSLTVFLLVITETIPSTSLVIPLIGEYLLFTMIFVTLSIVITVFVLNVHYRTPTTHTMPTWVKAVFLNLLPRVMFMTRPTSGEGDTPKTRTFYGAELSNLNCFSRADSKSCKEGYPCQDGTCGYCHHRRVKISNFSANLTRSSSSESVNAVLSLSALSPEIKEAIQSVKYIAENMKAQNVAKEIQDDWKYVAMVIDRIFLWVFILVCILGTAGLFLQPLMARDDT", "UniProt P12392, whole entry": "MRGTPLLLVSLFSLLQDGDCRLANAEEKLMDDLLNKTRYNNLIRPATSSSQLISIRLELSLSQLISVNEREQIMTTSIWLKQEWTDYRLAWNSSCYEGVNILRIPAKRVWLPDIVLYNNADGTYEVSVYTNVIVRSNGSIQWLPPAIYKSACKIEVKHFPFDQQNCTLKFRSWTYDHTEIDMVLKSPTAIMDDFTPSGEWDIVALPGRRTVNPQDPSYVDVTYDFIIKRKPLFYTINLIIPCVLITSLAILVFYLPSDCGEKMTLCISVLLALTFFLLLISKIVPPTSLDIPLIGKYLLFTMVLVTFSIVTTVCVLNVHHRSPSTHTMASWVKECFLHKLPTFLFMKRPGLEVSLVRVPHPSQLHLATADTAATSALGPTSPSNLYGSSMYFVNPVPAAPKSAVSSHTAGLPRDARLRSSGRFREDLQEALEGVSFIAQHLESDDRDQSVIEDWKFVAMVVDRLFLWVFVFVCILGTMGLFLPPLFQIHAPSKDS", "UniProt P17787, whole entry": "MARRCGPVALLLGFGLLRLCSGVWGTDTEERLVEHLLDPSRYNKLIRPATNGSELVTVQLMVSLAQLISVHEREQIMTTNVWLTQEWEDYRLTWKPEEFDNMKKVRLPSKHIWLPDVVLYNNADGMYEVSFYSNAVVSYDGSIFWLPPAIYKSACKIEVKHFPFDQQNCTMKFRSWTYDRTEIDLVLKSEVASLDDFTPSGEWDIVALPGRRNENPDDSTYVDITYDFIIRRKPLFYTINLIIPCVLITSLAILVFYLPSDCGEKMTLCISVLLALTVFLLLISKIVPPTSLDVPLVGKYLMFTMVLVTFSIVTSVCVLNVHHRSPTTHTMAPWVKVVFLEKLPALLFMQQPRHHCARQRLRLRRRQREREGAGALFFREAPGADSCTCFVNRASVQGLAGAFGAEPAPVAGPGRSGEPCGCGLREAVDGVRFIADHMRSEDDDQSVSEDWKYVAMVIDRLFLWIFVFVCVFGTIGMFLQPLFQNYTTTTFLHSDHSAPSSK", "UniProt P43681": "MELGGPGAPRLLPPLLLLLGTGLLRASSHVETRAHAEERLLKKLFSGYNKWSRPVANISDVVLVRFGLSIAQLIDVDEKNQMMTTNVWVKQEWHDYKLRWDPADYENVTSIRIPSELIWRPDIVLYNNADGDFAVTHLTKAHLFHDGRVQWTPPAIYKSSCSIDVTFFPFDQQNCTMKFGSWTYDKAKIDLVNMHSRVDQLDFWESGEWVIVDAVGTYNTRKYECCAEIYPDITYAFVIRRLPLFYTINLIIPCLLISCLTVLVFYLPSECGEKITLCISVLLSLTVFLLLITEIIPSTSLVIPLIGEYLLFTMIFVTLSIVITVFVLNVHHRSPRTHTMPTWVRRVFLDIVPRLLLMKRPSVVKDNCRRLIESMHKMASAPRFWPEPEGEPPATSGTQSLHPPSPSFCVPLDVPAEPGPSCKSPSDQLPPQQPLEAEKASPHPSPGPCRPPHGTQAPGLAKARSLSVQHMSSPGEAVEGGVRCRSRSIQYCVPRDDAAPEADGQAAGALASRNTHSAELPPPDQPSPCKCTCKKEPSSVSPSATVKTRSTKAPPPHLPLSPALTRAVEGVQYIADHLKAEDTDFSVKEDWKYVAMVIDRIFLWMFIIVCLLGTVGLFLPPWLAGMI"}, "source": "ChEMBL document CHEMBL3877245", "about": "(Eur J Med Chem, 2016)", "key": {"[1]": {"target": "alpha3beta4 nAChR (neuronal acetylcholine receptor alpha3/beta4) (Rattus norvegicus, UniProt P04757+P12392)", "assay": "Displacement of [3H]epibatidine from rat alpha3beta4 nAChR at 10 uM by liquid scintillation counting", "settings": "probe [3H]epibatidine"}, "[2]": {"target": "T1, Neuronal acetylcholine receptor; alpha4/beta2 (Homo sapiens, UniProt P17787+P43681)", "assay": "Agonist activity at human alpha4beta2 nAChR expressed in human SH-EP1 cells after 9.5 mins by 86Rb+ efflux assay", "assay_type": "cell-based", "in_short": "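86Rb+ efflux: cells loaded with ~350,000 cpm 86Rb+ at least 4 h (typically overnight), rinsed with efflux buffer pH 7.4 (130 mM NaCl, 5.4 mM KCl, 2 mM CaCl2, 50 mM HEPES, 5 mM glucose). Test drug alone applied 9.5 min. Efflux normalized, after nonspecific subtraction, to specific efflux of fully efficacious carbamylcholine control; nonspecific defined with carbamylcholine plus mecamylamine; EC50 derived.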"}, "[3]": {"target": "T1, Neuronal acetylcholine receptor; alpha4/beta2", "assay": "Antagonist activity at human alpha4beta2 expressed in human SH-EP1 cells assessed as reduction in carbamylcholine induced 86Rb+ efflux preincubated for 10 mins followed by carbamylcholine addition measured after 5 mins by Cherenkov counting", "assay_type": "cell-based", "in_short": "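Same 86Rb+-loaded cells and pH 7.4 efflux buffer. Cells lysed in 0.1 M NaOH/0.1% SDS and Cerenkov counted. Specific efflux = total minus nonspecific (mecamylamine-blocked); inactivation IC50 derived from inhibition of carbamylcholine response.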"}}, "data": [{"smiles": "COCC[C@H]1C[C@@H]1c1cncc(N2C[C@@H]3C[C@H]2CN3)c1", "values": [{"measurement": "inhibition at 10 µM", "setting": "[1]", "value": "< 50", "unit": "%"}, {"measurement": "EC50", "setting": "[2]", "value": 125, "unit": "nM"}, {"measurement": "IC50", "setting": "[3]", "value": 169, "unit": "nM"}]}]}
